{
  "source": "patent US20220218837A1",
  "about": "“DRUG CONJUGATE” (priority 2018, published 2022)",
  "key": {"[1]": {"tested_on": "HSP27 mRNA in A2058 cells (EGFR-)", "assay": "HSP27 gene silencing in A2058 cells", "type": "cell-based, human", "conditions": "A2058; titrated + fixed 77 nM Cetuximab-(Cys-L-SO1861)^3,8 (1T2C combination)", "method": "Cells were seeded in DMEM (PAN-Biotech GmbH) supplemented with 10% fetal bovine serum (PAN-Biotech GmbH) and 1% penicillin/streptomycin (PAN-Biotech GmbH), in a 96 well plate at 5,000 c/w in 100 μL/well and incubated overnight at 37° C. and 5% CO2. The next day samples were prepared in DMEM and cells were treated.\nRNA isolation and Qper analysis was performed according to standard procedures and protocols."}, "HeLa cells (EGFR+/-)": {"tested_on": "HeLa cells (EGFR+/-)", "assay": "Cell killing / cell viability, HeLa cells", "conditions": "read-out: IC50 cell killing, titrated + fixed 10 pM CD71mab-saporin"}, "[2]": {"tested_on": "MDA-MB-468 cells (EGFR++/HER2-/CD71+)", "assay": "Cell killing / cell viability, MDA-MB-468 cells", "type": "cell-based, human", "conditions": "substance alone, no partner"}, "[3]": {"tested_on": "human A431 tumor cells (xenograft; high EGFR, medium CD71, low HER2)", "assay": "A431 xenograft mouse tumor model, tumor volume", "type": "in vivo, mice", "conditions": "same groups as tumor size", "method": "Female Balb/c nude mice were injected subcutaneously with a suspension of human A431 tumor cells. Under the skin of the mice, a human epidermal carcinoma developed in the xenograft animal tumor model. After injection of the tumor cells, the xenograft tumor was allowed to develop to a size of approximately 170-180 mm^3. The A431 tumor cells have the following characteristics: high EGFR expressors, medium CD71 expressors, low HER2 expressors.\nIn Table A, the results of the treatment of control mice and tumor-bearing mice are presented. Tumor-bearing mice were treated with the indicated antibodies directed to either human Her2/neu, human EGFR, or human CD71, which are cell-surface receptors on the xenograft tumor. Cetuximab was covalently conjugated with saponin SO1861. […] The ADCs trastuzumab-saporin (covalent conjugate) and anti-CD71 mAb (OKT-9, IgG)—saporin (covalent conjugate) were tested for their tumor-attacking efficacy in the mice, measured as tumor volume in time after start of the treatment with the ADCs. The dose of the ADCs was sub-optimal in the tumor model. […]\nThe conjugate was tested in a A431 (EGFR^++) xenograph mouse tumor model for EGFR tumor targeted cell killing as illustrated in FIG. 9-4. Dosings started at day 12 when tumors reached ˜150 mm^3 in size and tumor volume was determined after every dosing."}},
  "data": [
    {"substance": "cetuximab-(Lys-L-HSP27BNA)^4: HSP27BNA conjugated via lysine residues to cetuximab", "values": [
      {"measurement": "IC50", "setting": "[1]", "result": "> 100", "unit": "nM"}
    ]},
    {"substance": "cetuximab-Cys-(dendron(-L-SO1861)^4)^3,9: Dendron(-L-SO1861)^4 conjugated to cetuximab via cysteine residues", "values": [
      {"measurement": "IC50", "setting": "HeLa cells (EGFR+/-)", "result": "> 100", "unit": "nM"},
      {"measurement": "cell killing activity (words)", "setting": "[2]", "result": "not induced"},
      {"measurement": "cell killing activity (words)", "setting": "[2]; listed as Cetuximab-Cys-(dendron(-L-SO1861)^4)^3,9", "result": "could not be induced"}
    ]},
    {"substance": "Cetuximab-SO1861 (covalent conjugate): SO1861-EMCH covalently coupled to reduced cysteines of cetuximab", "values": [
      {"measurement": "outcome of the animals (death/euthanasia or survival)", "setting": "[3]", "result": "death/euthanasia"}
    ]}
  ]
}
